Source: ChEMBL document CHEMBL3638875, “Pyrazol-4-yl-heterocyclyl-carboxamide compounds and methods of use” (2014)

Protein sequences, listed by entry. Tags and fused reporters are not part of them.
UniProt P11309, whole entry: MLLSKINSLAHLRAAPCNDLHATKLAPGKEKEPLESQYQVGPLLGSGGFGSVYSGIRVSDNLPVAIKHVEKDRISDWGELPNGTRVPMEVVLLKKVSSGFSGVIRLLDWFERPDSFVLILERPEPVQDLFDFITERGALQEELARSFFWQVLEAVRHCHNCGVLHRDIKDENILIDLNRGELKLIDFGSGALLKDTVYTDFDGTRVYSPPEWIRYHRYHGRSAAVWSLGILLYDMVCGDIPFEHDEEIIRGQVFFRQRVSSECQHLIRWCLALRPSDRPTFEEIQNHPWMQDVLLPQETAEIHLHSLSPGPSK

Target: Serine/threonine-protein kinase pim-1 (Homo sapiens, UniProt P11309)
Assay: Binding Assay: PIM-1, -2, and -3 enzymes were generated as fusion proteins expressed in bacteria and purified by IMAC column chromatography (Sun, X., Chiu, J. F., and He, Q. Y. (2005) Expert Rev. Proteomics, 2:649-657). A fluorescent-labeled Pim-specific peptide substrate, was custom synthesized by American Peptide Company (Sunnyvale, Calif.). Reaction Buffer contained 10 mM HEPES, pH 7.2, 10 mM MgCl2, 0.01% Tween 20, 2 mM DTT. Termination Buffer contained 190 mM HEPES, pH 7.2, 0.015% Brij-35, 0.2% Coating Reagent 3 (Caliper Life Sciences, Hopkinton, Mass.), 20 mM EDTA. Separation Buffer contained 100 mM HEPES, pH 7.2, 0.015% Brij-35, 0.1% Coating Reagent 3, 1:200 Coating Reagent 8 (Caliper Life Sciences, Hopkinton, Mass.), 10 mM EDTA and 5% DMSO.

- pKi: 7.41
Structure (SMILES): Cn1ncc(NC(=O)c2nc(Br)cnc2N)c1N1CCC[C@H](N)C1

pKi: −log10 of the molar value.
